A word on the EC50: it is the concentration giving half of the maximal effect. High values mean weaker potency, low ones greater potency.

Chains of the proteins cited; added tags and fusions are not shown.
UniProt Q02108, whole entry: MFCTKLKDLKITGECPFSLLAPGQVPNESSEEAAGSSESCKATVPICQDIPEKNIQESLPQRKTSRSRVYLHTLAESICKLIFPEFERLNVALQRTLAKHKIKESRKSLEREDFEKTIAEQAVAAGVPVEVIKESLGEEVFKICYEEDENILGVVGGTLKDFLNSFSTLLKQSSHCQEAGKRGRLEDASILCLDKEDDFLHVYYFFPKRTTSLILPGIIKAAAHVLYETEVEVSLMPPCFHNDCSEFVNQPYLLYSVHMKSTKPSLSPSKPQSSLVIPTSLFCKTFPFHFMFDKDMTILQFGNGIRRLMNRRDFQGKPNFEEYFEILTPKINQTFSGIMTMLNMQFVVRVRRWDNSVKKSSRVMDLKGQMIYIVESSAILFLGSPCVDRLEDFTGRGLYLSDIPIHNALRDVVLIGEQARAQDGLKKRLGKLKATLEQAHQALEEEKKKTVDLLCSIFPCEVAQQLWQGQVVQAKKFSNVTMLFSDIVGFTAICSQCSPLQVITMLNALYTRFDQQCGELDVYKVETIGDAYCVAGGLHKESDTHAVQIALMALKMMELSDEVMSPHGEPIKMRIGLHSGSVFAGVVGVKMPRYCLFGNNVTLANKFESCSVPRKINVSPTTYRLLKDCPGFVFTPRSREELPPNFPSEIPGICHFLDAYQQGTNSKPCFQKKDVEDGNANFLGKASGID
UniProt Q02153, whole entry: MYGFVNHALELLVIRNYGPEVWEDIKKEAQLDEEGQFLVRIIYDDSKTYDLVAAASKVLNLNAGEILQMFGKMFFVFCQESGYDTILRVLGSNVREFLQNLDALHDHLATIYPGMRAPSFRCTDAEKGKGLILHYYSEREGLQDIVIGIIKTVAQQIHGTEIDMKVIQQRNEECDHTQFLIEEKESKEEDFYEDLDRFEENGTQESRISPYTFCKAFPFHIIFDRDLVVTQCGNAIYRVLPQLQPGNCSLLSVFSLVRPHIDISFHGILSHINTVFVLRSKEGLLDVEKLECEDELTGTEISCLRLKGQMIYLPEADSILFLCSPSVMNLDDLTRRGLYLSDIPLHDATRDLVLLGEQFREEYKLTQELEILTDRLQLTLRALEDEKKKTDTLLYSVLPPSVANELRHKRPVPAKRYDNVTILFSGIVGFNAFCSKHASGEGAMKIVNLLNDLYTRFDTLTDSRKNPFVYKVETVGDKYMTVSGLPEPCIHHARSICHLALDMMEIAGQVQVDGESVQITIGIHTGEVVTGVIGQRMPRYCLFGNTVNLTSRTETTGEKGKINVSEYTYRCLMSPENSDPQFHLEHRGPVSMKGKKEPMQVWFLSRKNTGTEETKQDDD

These results are taken from patent EP4786461A1, “PYRAZOLE CARBOXYLIC ACID DERIVATIVE AND USE THEREOF IN MEDICINE” (Haisco Pharmaceutical Group Co., Ltd., priority 2023, dated 2025).

In this assay the target is soluble guanylate cyclase (sGC) (Homo sapiens, UniProt Q02108+Q02153). Briefly: In vitro detection experiment for soluble guanylate cyclase (sGC) activity (TR-FRET cGMP). To be noted: enzymatic agonism and/or activation of sGC; 1.5 nM sGC, 5 µM GTP, 100 µM DETA NONOate; tested form: free form. (In general: Time-resolved FRET reads energy transfer from a long-lived donor to a nearby acceptor.)

Compound `CC(C)CN1C2CCC1CN(c1ccc(-c3ccc(Cl)cc3N3CCCC(n4ncc(C(=O)O)c4C(F)F)C3)cc1)C2` (single isomer, unassigned) registered an EC50 of less than 20 nM.
